Results on one substance are retold here after patent publication US10653796B2, “Liposomes containing cell penetrating peptides and tetraetherlipids for the oral delivery of macromolecules” (Universität Heidelberg, priority 2015, dated 2020).

A short description of this data set: Radioactivity at determined time points after oral application of radiolabeled substances. The format is in vivo. The following applies: radiolabeled substance.

For the substance Insulin [reference compound], the “mucosal uptake by the liposomal formulations” value is recorded as “strongly enhanced mucosal uptake”.
